Consider three molecules from patent US8367720B2 (Panorama Research Inc., priority 2007, dated 2013).

The test system of experiment [1] is L1210 cells. Format: cell-based. As to conditions: concentration not given.
Experiment [2] deals with MRSA5676. The experiment is described as follows: Test of minimal inhibitory concentration (MIC). The experiment is classed as cell-based, Staphylococcus aureus. The settings on record: 24 h; for MIC: Staphylococcus aureus, read-out: MIC, MRSA5676.
The test system of experiment [3] is MRSA5677. The experiment is described as follows: Test of minimal inhibitory concentration (MIC). Format: cell-based, Staphylococcus aureus. The settings on record: 24 h; for MIC: Staphylococcus aureus, read-out: MIC, MRSA5677.
Experiment [4] relates to Staphylococcus aureus wild type. The experiment is described as follows: Test of minimal inhibitory concentration (MIC). As to conditions: for MIC: Staphylococcus aureus. The experiment is classed as cell-based.
The test system of experiment [5] is Pseudomonas aeruginosa (PAO1). The settings on record: 12.5 mg/mL (34 mM); cited from earlier work.
In experiment [6] the test system is BF of Pseudomonas aeruginosa. The experiment in a line: Scanning electron microscopy (SEM) experiment, biofilm (BF) formation. The experiment is classed as cell-based. As to conditions: 1 mM; early BF 3rd day, mature BF 7th day (FIG. 6, 7).
Experiment [7] deals with MCF-7 cells. As to conditions: MCF-7, 5 μM, cited from earlier work.
Experiment [8] relates to rats with STZ-induced diabetes mellitus. The experiment in a line: Therapeutical effects on STZ-induced diabetes mellitus in rats. As to conditions: Day 0, before treatment.
Where [9] appears, read: two-fold dilution, 37° C., absorbance 595 nm.

By MIC is commonly meant the lowest concentration found to suppress growth.

Like-named read-outs stand apart in the source and are kept apart here.

In the case of “potassium sodium dehydroandrographolide succinate [Yanhuning]”, in experiment [1], the “effect on cell cycle of L1210 cells” value is listed as “did not change the cell cycle”. In experiment [2] (setting [9]), the “MIC, MRSA5676” value was “^c (no activity (>1 mM))”. In experiment [3] (setting [9]), the “MIC, MRSA5677” value is on record as “^c (no activity (>1 mM))”. Besides, the “MIC, Wild type” value in experiment [4] (two-fold dilution, 37° C., 24 h, absorbance 595 nm) is recorded as “^c (no activity (>1 mM))”.

As for `C=C1CCC2[C@@](C)(CC[C@@H](O)[C@@]2(C)CO)C1CC(C1=CCOC1=O)S(=O)(=O)[O-].[Na+]` (some centres unmarked) [Lianbizhi, andrographolide sodium bisulfite], the “effect on cell cycle of L1210 cells” value in experiment [1] is “did not change the cell cycle”. For the same molecule, the MIC was over 1000 µM in experiment [2]; over 1000 µM in experiment [3]; over 1000 µM in experiment [4]; over 1000 µM in experiment [4] (24 h, read-out: MIC, Wild type). In addition, in experiment [5], the “growth of the cultured PAO1” value is listed as “did not influence growth”. Also, in experiment [5], the “production of Pseudomonas aeruginosa and the activities of protease and elastase” value is “significantly inhibited”.

Regarding `C=C1CCC2[C@@](C)(CC[C@@H](O)[C@@]2(C)CO)C1C/C=C1/C(=O)OCC1O` (some centres unmarked) [Andro, Andrographolide], the “effect on cell cycle of L1210 cells” value in experiment [1] is on record as “arrested L1210 cells at G0-G1 phase”. In addition, the MIC in experiment [2] was over 1000 µM. For the same molecule, the “formation of early and mature BF of Pseudomonas aeruginosa under SEM” value in experiment [6] is on record as “did not significantly inhibit the formation of BF”. For the same molecule, the MIC in experiment [3] was over 1000 µM. For the same molecule, the “increase of cells of G1 phase” value in experiment [7] (24 h, vs DMSO control) is 10%. In experiment [7] (48 h, vs control), the “increase of MCF-7 cells of sub-G1 phase” value is recorded as 7%. The molecule further gave an MIC in experiment [4] of over 1000 µM. Besides, in experiment [4] (24 h, read-out: MIC, Wild type), the MIC is over 1000 µM. In experiment [8], this molecule gave a Blood glucose of 22.15 ± 0.35 mmol/L, a Body weight of 198.33 ± 10.69 g, a Total cholesterol of 3.15 ± 1.67 mmol/L and a Total triglyceride of 8.44 ± 2.45 mmol/L.
